This assay relates to SKBR-3 cells. The format is cell-based, human. As to conditions: concentrations significantly above the EC50. How it is done:
Proliferation was measured by standard BrdU cell proliferation assay (Calbiochem). Cell lines were plated in 96-well plates (20,000 cells/well) in D-10 media with indicated amount of peptide with 2% DMSO, and incubated overnight. The BrdU compound was given to the cells for 2 hrs. Following the manufacturer's protocol, samples were analyzed by UV absorbance measurements at 450 nm. Peptide signal was normalized to cells incubated with 2% DMSO but no peptide. IC50 data was generated by fitting the data to a drug response equation (Log(drug) vs. Response, GraphPad Prism 5.0).
The peptides were then screened for function using a standard in vitro assays used to test efficacy of Her-2 targeting molecules. The assay involved analyzing a molecule's ability to inhibit proliferation in cell culture. A widely used kit is the BrdU cell proliferation assay. In this assay, cells are incubated with the molecule of interest before having their media supplemented with a bromodeoxyuridine. Bromodeoxyuridine is incorporated into the DNA of proliferating cells. DNA with this modified base is recognized with an antibody, and quantitated by ELISA. Applicants tested the peptides and compared them with their parental molecules.

Turning to “Herceptin: FDA approved monoclonal antibody to the ectodomain of Her-2 [reference compound]”, the “proliferation relative to untreated cells (maximal effect)” value is 75%. In addition, the “maximal inhibition of proliferation” value (100−(% proliferation)) amounted to 25%.

The values are drawn from US20180312539A1, “METHODS FOR PREPARING HIGH THROUGHPUT PEPTIDOMIMETICS, ORALLY BIOAVAILABLE DRUGS AND COMPOSITIONS CONTAINING SAME” (University of Southern California, priority 2011, published 2018).
